Drawing on BindingDB's records for 1846919, this text covers Ki for one compound.

Amino acid sequences for entries named in this document (tags omitted).
UniProt P41143, whole entry: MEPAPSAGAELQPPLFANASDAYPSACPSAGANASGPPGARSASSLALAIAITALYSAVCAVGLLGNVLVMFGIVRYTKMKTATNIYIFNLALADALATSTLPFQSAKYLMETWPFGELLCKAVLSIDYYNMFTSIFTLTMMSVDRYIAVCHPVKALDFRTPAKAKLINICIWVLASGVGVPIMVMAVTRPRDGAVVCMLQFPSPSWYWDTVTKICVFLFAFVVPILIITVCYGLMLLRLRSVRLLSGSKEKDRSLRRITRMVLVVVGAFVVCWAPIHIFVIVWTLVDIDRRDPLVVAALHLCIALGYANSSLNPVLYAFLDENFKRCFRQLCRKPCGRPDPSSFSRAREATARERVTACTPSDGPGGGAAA

In this assay the target is Delta-type opioid receptor (Homo sapiens, UniProt P41143). The experiment in a line: ChEBML_146444. The protocol:
Compound was evaluated for the opioid receptor delta affinity

Only a part of the results on these compounds is given; other tests are left out.

As a reminder, the Ki is a dissociation constant, usually derived from enzyme kinetics or from competition with a known ligand. A low value points to higher affinity. In turn, `CC1c2cccc3cccc(c23)C1C(=O)N(C)[C@H]1CCC2(CCCO2)C[C@@H]1N1CCCC1` (stereo partly specified) yielded a Ki of 578 nM.
